# PubChem BioAssay AID493193 (Broad Institute, 2011)
# The list shows a part of the results, in another mix than the full data. Active and inactive are the calls of the source. How the calls were made is not given here.
# Assay: PubChem AID 493193
# Details: U2OS HRE-luciferase reporter, luminescence, HIF pathway activation; at 38 µM (top of the series)
smiles,measurement,value
O=c1[nH]c2ccccc2n1C1CCN(Cc2ccc(O)c3ncccc23)CC1,activation,inactive: -0.083%
